Data on 30 compounds can be found in PubChem BioAssay AID435003 (Sanford-Burnham Center for Chemical Genomics, 2010).

The list shows a part of the results, in another mix than the full data. Calls of active or inactive are those of the source. No stated cut-off is given here; in the data, active means inhibition above about 50%; inactive means the rest.

This test is described as follows: lowers stimulated NF-kB reporter luminescence – cell-based, uHTS, TCR NF-kB activation inhibitor project, primary screen (AID 435003). Conditions: Jurkat, PMA/ionomycin-induced NF-kB luciferase reporter, at 4 µM, active compounds read high.
On to `N#Cc1ccc(C(=O)NCC2(N3CCCCC3)CCCCC2)cc1`, for which the inhibition was inactive: -2.34%.
For `CC(C)(C)OC(=O)N1CCC(N(C(=O)c2ccccc2)c2ccc(Cl)cc2)CC1`, the inhibition is inactive: 3.37%.
With `CN(C)C1(CNC(=O)c2cccc(C#N)c2)CCCCC1`, the inhibition is inactive: -20%.
For the compound `CCCN1CCC(Nc2cc(OC)cc(OC)c2)CC1`, the inhibition is inactive: 0.717%.
With `c1ccc(CN2CCC(Nc3ccccc3)CC2)cc1` the figure was inactive: -3.12%; with `COc1cc(C(=O)NCC2(N3CCOCC3)CCCCC2)cc(OC)c1C`, inactive: -6.89%.
As to `O=C(NCC1(N2CCOCC2)CCCCC1)c1cc(Br)ccc1Cl`, the inhibition is inactive: -1.28%.
With `COc1ccc(C(=O)NCC2(N3CCOCC3)CCCCC2)cc1OC` the figure was inactive: -2.3%; with `CCOC(=O)N1CCC(Nc2ccc(C)cc2)CC1`, inactive: 7.5%; with `N/C(=N\O)c1c(N)no[n+]1[O-]`, inactive: -5.95%.
Turning to `O=C(OC1CN2CCC1CC2)C1c2ccccc2C=Cc2ccccc21` (stereo not given), the inhibition is inactive: 13.5%.
For the compound `CCc1cc(C(=O)NCC2(N3CCCCC3)CCCCC2)sc1C`, the inhibition was inactive: 4.72%.
Regarding `CN1CCC(Nc2ccc(F)c(Cl)c2)CC1`, the inhibition was inactive: 0.885%.
Turning to `CCOc1ncccc1C(=O)NCC1(N2CCOCC2)CCCCC1`, the inhibition is inactive: -4.16%.
As for `O=C(O)C1(Nc2ccccc2)CCN(Cc2ccccc2)CC1`, the inhibition was inactive: -22.3%.
Take `CC(C)(C)OC(=O)N1CCC(Nc2ccccc2)CC1`: the inhibition was inactive: 18%.
For `CCCOc1ccc(C(=O)NCC2(N(C)C)CCCCC2)cc1`, the inhibition was inactive: -12.5%.
As for `COc1cc(OC)cc(C(=O)NCC2(N3CCOCC3)CCCCC2)c1`, the inhibition is inactive: -6.17%.
With `COc1cccc(C(=O)N(c2cc(C)cc(C)c2)C2CCN(C(=O)OC(C)(C)C)CC2)c1`, the inhibition was inactive: -0.0138%.
With `CCC(CO)(C(=O)OC1CN2CCC1CC2)c1ccccc1` (stereo not given), the inhibition was inactive: -7.04%.
As to `CN1CCC(Nc2ccc(Cl)cc2)CC1`, the inhibition was inactive: -19.3%.
`CCCOc1ccc(C)cc1CN(CCCl)CCCl`: the inhibition was inactive: -12.7%.
With `COc1cc(OC)cc(C(=O)NCC2(N3CCCCC3)CCCCC2)c1`, the inhibition was inactive: -2.68%.
Consider `Fc1ccccc1NC1CCN(Cc2ccccc2)CC1`, for which the inhibition is inactive: 0.66%.
Consider `Cc1ccc(C(=O)NCC2(N3CCCCC3)CCCCC2)o1`, for which the inhibition is inactive: 6.19%.
For `CCN1CCC(Nc2cccc(F)c2)CC1` the value was inactive: 1.75%.
In the case of `CN(C)c1ccc(C(=O)NCC2(N3CCCCC3)CCCCC2)cc1`, the inhibition is inactive: -3.72%.
With `O=C(NCC1(N2CCCCC2)CCCCC1)c1ccco1` the figure was inactive: -6.68%.
With `CCOc1ccc(C)cc1CN(CCCl)CCCl` the figure was inactive: -8.25%; with `COc1ccc(NC2CCN(CCc3ccccc3)CC2)c(OC)c1`, inactive: 7.56%.
